# Assay results from article PMC5823688 (Molecular pharmaceutics, 2017).
# Tests used:
# [1] = Serum stability of peptide macromonomers and polymers; type: in vitro ADME; settings: 0 to 12 h; 400 μM in human serum, 37°C; acetonitrile extraction; MALDI-TOF MS
# [2] = 0.25 mg/mL polymer, 100 mM phosphate buffer with 150 mM NaCl; for hydrodynamic diameter (DLS), unimers: pH 5.8; for hydrodynamic diameter (DLS): pH 7.4, number-average of three independently prepared formulations
Substance,cleavage at the FKFL linker in human serum (2980 Da peak) [1],"hydrodynamic diameter (DLS), unimers [2]",hydrodynamic diameter (DLS) [2]
poly[(DEAEMA)-co-(BMA)]-b-[(PEGMA300)-c-(MaCath-BIM)] [PolCathBIM],absent at all time points,6 nm,25 nm
poly[(DEAEMA)-co-(BMA)]-b-[(PEGMA300)-c-(MaCathScrBIM)] [PolCathScrBIM],absent at all time points,6 nm,26 nm
